Measured values from patent US6623933B1 (priority 1999, dated 2003).
Where two headings read alike, the source gives them in different places.

The chains behind the UniProt entries cited, without tags or fusion partners. Residues count along the entry.
UniProt Q00959, 23-1464: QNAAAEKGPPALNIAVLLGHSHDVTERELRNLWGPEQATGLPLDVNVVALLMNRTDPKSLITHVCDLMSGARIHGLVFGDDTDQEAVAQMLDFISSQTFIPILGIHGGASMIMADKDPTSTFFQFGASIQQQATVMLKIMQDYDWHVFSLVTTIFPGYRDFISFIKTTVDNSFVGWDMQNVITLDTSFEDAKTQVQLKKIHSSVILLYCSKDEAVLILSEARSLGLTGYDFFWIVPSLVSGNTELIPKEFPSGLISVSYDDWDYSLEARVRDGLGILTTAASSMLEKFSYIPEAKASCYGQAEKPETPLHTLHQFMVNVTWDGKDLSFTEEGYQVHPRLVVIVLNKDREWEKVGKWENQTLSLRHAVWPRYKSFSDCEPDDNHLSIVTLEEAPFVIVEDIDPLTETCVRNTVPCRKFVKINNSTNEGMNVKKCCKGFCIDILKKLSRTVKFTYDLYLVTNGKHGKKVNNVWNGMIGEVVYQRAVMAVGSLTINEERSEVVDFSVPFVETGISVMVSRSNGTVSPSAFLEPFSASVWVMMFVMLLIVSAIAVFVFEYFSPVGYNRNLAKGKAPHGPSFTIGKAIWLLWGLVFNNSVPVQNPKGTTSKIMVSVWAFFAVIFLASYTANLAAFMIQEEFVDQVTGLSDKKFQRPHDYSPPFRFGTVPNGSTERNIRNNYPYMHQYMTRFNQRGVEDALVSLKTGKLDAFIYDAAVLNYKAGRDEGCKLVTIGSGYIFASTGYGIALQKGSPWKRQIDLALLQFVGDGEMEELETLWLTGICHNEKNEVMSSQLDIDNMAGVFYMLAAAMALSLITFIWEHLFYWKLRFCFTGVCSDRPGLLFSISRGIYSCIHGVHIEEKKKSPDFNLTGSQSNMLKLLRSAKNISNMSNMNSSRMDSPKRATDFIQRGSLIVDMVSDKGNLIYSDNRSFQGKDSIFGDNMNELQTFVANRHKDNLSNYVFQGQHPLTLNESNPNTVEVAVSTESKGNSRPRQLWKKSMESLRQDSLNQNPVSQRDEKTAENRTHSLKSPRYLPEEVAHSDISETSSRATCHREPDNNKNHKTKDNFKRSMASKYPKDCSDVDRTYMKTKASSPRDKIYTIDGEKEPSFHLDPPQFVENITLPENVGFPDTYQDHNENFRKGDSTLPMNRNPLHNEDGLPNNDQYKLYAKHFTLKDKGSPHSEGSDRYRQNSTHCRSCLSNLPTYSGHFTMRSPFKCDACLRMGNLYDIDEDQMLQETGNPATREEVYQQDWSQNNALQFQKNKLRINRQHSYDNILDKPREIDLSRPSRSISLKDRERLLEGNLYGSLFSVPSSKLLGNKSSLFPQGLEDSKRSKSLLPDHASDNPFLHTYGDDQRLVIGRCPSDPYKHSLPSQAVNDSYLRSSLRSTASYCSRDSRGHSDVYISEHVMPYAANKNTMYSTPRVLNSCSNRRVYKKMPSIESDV
UniProt Q62645, 28-1323: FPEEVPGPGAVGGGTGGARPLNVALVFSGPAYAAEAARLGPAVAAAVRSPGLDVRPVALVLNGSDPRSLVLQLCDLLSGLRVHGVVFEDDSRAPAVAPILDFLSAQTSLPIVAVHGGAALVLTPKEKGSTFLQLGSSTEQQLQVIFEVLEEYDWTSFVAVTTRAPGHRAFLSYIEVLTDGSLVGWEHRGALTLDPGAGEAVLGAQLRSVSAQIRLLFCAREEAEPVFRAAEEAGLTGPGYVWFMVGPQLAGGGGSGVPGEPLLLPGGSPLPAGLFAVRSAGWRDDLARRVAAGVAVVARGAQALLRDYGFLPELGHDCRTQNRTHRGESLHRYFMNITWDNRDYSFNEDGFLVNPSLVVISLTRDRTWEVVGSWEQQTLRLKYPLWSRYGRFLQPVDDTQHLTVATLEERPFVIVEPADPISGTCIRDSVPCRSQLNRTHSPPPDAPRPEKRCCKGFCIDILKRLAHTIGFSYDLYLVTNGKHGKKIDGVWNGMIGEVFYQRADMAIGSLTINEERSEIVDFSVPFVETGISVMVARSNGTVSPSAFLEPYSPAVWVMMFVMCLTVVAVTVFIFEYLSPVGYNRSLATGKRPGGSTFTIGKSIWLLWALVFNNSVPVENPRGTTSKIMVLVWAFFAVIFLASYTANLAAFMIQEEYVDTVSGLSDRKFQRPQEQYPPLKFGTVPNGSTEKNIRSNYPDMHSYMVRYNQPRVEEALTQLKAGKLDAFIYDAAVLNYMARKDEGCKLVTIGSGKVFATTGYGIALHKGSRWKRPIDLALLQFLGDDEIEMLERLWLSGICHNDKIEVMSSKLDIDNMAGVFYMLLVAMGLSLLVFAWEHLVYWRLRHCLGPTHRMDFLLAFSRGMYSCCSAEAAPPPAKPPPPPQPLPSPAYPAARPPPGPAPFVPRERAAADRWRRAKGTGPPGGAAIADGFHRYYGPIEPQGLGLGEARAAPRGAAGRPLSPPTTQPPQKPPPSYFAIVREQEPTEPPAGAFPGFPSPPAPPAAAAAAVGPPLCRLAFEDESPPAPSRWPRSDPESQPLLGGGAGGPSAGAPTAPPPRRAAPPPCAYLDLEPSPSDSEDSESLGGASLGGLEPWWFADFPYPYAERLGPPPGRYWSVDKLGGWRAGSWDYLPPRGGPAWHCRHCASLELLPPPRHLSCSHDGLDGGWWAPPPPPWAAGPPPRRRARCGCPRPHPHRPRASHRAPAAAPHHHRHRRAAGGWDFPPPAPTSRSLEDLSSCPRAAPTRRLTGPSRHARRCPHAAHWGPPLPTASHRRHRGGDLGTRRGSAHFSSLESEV
UniProt Q00961, 20-1237: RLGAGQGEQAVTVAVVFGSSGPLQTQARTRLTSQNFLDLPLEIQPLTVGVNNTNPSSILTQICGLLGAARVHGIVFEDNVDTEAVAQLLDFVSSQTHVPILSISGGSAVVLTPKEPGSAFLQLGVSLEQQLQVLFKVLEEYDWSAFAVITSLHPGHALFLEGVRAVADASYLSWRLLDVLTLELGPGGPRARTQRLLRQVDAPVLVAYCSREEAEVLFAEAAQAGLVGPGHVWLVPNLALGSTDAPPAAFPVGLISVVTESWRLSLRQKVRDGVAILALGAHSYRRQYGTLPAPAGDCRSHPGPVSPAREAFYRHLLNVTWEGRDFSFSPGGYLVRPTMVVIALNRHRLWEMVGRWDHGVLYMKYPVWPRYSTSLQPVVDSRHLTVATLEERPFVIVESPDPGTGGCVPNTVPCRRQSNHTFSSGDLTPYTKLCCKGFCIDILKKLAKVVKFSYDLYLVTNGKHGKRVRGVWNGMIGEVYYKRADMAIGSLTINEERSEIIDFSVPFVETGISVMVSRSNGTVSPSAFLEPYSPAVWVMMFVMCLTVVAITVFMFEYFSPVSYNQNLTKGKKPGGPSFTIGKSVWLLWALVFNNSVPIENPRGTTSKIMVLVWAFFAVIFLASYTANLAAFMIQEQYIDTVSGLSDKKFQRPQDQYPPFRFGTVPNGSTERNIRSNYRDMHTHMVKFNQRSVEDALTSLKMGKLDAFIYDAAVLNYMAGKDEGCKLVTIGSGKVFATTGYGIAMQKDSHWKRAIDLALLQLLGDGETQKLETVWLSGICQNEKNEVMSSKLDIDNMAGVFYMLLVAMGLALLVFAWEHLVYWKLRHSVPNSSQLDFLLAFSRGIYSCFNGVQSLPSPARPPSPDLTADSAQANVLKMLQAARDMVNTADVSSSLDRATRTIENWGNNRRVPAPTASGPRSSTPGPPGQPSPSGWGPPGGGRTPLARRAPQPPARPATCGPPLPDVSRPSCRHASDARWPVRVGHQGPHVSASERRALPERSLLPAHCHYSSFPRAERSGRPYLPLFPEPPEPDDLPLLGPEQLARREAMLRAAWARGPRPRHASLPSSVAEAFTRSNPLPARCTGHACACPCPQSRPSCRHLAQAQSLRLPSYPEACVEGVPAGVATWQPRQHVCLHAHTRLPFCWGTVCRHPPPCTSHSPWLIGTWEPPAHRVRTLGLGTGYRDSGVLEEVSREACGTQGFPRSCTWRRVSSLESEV
UniProt P42260, 32-908: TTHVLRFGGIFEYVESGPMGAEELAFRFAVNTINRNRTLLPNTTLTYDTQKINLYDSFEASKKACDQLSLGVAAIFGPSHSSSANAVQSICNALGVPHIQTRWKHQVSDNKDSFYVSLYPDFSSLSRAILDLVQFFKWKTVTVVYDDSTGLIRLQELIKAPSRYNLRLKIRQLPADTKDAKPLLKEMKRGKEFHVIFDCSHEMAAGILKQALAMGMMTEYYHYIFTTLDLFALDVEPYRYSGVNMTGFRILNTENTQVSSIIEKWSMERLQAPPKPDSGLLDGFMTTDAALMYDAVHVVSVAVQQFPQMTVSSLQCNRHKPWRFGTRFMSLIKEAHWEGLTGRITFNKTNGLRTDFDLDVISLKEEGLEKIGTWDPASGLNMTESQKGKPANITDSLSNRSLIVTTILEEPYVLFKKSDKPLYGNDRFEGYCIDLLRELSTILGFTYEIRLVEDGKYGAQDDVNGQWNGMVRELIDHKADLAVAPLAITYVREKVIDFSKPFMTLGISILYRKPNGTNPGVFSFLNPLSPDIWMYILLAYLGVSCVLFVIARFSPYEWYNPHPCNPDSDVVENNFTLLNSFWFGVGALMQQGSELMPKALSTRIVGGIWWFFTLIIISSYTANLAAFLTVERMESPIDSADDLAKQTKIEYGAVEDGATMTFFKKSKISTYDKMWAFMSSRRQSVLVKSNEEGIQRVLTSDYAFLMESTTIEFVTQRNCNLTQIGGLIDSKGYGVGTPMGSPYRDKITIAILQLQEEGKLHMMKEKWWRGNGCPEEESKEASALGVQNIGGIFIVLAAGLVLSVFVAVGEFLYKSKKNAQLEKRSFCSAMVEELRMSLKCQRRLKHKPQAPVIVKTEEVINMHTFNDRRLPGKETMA
UniProt Q00960, 27-1482: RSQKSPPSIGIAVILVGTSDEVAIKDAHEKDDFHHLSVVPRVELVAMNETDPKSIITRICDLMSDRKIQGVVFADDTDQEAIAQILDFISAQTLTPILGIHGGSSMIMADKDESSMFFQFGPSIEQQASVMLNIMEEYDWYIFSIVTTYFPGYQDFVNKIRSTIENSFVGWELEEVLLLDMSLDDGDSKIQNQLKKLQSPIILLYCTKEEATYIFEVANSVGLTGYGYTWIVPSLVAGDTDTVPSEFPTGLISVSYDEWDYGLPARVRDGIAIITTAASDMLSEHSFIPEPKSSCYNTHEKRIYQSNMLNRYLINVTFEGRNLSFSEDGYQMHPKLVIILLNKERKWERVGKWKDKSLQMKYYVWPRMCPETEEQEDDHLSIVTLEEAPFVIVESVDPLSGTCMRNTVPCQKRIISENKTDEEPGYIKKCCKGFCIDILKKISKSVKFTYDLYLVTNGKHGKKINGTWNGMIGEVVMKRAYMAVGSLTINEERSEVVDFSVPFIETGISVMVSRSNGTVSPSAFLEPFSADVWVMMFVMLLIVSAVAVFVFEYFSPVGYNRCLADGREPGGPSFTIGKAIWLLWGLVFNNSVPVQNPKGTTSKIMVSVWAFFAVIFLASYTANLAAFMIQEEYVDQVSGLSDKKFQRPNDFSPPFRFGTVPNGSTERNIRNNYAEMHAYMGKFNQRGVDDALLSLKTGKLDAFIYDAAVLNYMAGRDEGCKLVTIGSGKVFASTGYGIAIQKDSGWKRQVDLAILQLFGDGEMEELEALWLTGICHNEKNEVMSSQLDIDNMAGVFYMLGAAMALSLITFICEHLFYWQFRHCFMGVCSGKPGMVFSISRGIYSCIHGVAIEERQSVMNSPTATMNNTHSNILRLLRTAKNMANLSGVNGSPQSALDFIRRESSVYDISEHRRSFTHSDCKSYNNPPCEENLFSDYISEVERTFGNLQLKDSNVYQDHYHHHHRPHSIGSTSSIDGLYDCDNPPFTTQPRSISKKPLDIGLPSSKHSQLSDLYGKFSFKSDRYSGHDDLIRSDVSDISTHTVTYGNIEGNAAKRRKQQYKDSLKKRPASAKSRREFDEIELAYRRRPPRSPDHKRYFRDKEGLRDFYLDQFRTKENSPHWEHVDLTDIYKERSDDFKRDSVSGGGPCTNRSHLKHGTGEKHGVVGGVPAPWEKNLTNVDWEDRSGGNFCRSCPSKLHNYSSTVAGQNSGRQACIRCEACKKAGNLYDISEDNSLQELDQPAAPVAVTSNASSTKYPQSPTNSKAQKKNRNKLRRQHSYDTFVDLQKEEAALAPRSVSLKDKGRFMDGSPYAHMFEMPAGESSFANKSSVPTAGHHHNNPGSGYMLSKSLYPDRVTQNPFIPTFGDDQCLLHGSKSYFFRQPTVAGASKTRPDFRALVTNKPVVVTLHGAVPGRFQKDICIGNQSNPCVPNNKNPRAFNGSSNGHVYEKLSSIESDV

Experiments:
NR1000/NR2A = NR1000/NR2A (Rattus norvegicus, UniProt P35439+Q00959); conditions: presence of 100 mM PS
NR1/NR2D (NR1100) = NR1/NR2D (NR1100) (Rattus norvegicus, UniProt P35439+Q62645); conditions: no PS
NR1/NR2C (NR1100) = NR1/NR2C (NR1100) (Rattus norvegicus, UniProt P35439+Q00961); conditions: no PS
NR1011/NR2A = NR1011/NR2A (Rattus norvegicus, UniProt P35439+Q00959)
GluR6 kainate receptor = molecular target: T1, GluR6 kainate receptor (Rattus norvegicus, UniProt P42260); experiment: Kainate-induced currents, Xenopus oocytes injected with GluR6 cRNA; type: cell-based
T1 construct: expressed in transfected cells; host or cells: Xenopus oocytes injected with GluR6 cRNA (concanavalin A treated)
Excerpt: Plasmids were obtained from the following individuals: Dr. Suzanne Zukin (Albert Einstein College of Medicine, Bronx, N.Y.), NR1100; Dr. Shigetada Nakanishi (Kyoto University Faculty of Medicine, Kyoto, Japan), NR2A; Dr. Stephen Heinemann (Salk Institute, San Diego, Calif.), GluR1 (flop), GluR3 (flop), and GluR6. Plasmids were linearized with BamH1 (NR1100), XhoI (NR2A, GluR1, GluR3) or XbaI (GluR6) prior to in vitro transcription with T3 (GluR1, GluR3, GluR6) or T7 (NR1100, NR2A) RNA polymerase using the Message Machine kit (Ambion, Austin, Tex.). […] RNA solutions (50-70 nl) were injected into oocytes for delivery of NR1100 (5 ng), NR1100:NR2A (1:10 ng), GluR1 (5 ng). GluR3 (5 ng), or GluR6 (20 ng). Oocytes were incubated in ND96 at 18-20° C. for 3-7 days prior to electrophysiological recording.
Steroid solutions were prepared as 70-100 mM frozen stocks in dimethyl sulfoxide (DMSO). The final DMSO concentration of all recording solutions was between 0.1% to 0.5% and was constant within an experiment.
Perfusion control and data acquisition were carried out using an automated oocyte electrophysiology workstation that was developed for the rapid collection of concentration-response data and real-time waveform analysis (Yaghoubi et al., Soc. Neurosci. Abstr. 20: 1109 (1995)). […]
Results are expressed as mean±S.E.M. Statistical comparisons were made using Student's t-test.

NR1100/NR2A = NR1100/NR2A (Rattus norvegicus, UniProt P35439+Q00959); conditions: absence of PS
NR1001/NR2A = NR1001/NR2A (Rattus norvegicus, UniProt P35439+Q00959)
NR1101/NR2A = NR1101/NR2A (Rattus norvegicus, UniProt P35439+Q00959)
NR1010/NR2A = NR1010/NR2A (Rattus norvegicus, UniProt P35439+Q00959); conditions: absence of PS
NR1/NR2A (NR1100) = NR1/NR2A (NR1100) (Rattus norvegicus, UniProt P35439+Q00959); conditions: no PS
NR1111/NR2A = NR1111/NR2A (Rattus norvegicus, UniProt P35439+Q00959)
NR1/NR2B (NR1100) = NR1/NR2B (NR1100) (Rattus norvegicus, UniProt P35439+Q00960); conditions: no PS

| agonist nHill (NR1100/NR2A) | agonist nHill (NR1001/NR2A; absence of PS) | agonist nHill (NR1001/NR2A; presence of 100 mM PS) | agonist nHill (NR1101/NR2A; absence of PS) | agonist nHill (NR1101/NR2A; presence of 100 mM PS) | agonist nHill (NR1010/NR2A) | agonist Emax (NR1011/NR2A; absence of PS) | agonist nHill (NR1011/NR2A; presence of 100 mM PS) | agonist nH (NR1/NR2A (NR1100)) | agonist Emax (NR1/NR2A (NR1100); normalized to 200 μM NMDA plus 10 μM glycine) | agonist nHill (NR1111/NR2A; absence of PS) | agonist nHill (NR1111/NR2A; presence of 100 mM PS) | agonist Emax (NR1/NR2B (NR1100)) | SMILES | agonist nHill (NR1000/NR2A) | agonist nH (NR1/NR2D (NR1100)) | agonist nH (NR1/NR2C (NR1100)) | agonist nHill (NR1011/NR2A; absence of PS) | kainate nH (GluR6 kainate receptor; +100 μM PS) | kainate nH (GluR6 kainate receptor; control) |
| --- | --- | --- | --- | --- | --- | --- | --- | --- | --- | --- | --- | --- | --- | --- | --- | --- | --- | --- | --- |
| – | – | – | – | – | – | – | – | – | – | – | – | – | N[C@@H](CCC(=O)O)C(=O)O [L-glutamate] | 1.17 ± 0.08 | 1.26 ± 0.12 | 1.27 ± 0.06 | 1.17 ± 0.03 | – | – |
| – | – | – | – | – | – | – | – | – | – | – | – | – | C=C(C)[C@H]1CN[C@H](C(=O)O)[C@H]1CC(=O)O [kainate] | – | – | – | – | 1.2 | 1.1 |
| 1.23 ± 0.07 | 1.25 ± 0.07 | 1.30 ± 0.13 | 1.37 ± 0.13 | 1.32 ± 0.09 | 1.32 ± 0.07 | 1.67 ± 0.08 | 1.34 ± 0.18 | 1.58 ± 0.04 | 1.58 ± 0.04 | 1.49 ± 0.06 | 1.26 ± 0.10 | 1.49 ± 0.03 | NCC(=O)O [glycine] | 1.12 ± 0.05 | 1.12 ± 0.08 | 1.18 ± 0.05 | 1.30 ± 0.05 | – | – |
